The test has as its target Serine/threonine-protein kinase pim-1 (Homo sapiens, UniProt P11309).

Chains of the proteins cited; added tags and fusions are not shown.
UniProt P11309, whole entry: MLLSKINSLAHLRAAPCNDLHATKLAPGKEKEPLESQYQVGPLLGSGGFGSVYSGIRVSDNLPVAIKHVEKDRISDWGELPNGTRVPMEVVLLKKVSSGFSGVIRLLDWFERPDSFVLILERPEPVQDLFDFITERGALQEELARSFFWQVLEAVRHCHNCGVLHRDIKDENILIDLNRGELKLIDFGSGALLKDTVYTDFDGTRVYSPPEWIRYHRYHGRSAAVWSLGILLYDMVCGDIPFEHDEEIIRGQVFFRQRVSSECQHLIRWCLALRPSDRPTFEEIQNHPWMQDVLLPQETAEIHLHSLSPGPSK

Structures are written as SMILES.

Broadly, the Ki is the dissociation constant of the complex between target and ligand, obtained from inhibition or displacement. A high value points to weaker binding. For the compound `Cn1cc(-c2cc3c(-c4cccc(N5CCC[C@@H](N)C5)n4)n[nH]c3cn2)cn1`, affinity was put at a Ki of 140 pM.
